Chains of the proteins cited; added tags and fusions are not shown. Lines headed by an entry give the natural chain unless they say otherwise; changes in a name come on top.
UniProt Q07343: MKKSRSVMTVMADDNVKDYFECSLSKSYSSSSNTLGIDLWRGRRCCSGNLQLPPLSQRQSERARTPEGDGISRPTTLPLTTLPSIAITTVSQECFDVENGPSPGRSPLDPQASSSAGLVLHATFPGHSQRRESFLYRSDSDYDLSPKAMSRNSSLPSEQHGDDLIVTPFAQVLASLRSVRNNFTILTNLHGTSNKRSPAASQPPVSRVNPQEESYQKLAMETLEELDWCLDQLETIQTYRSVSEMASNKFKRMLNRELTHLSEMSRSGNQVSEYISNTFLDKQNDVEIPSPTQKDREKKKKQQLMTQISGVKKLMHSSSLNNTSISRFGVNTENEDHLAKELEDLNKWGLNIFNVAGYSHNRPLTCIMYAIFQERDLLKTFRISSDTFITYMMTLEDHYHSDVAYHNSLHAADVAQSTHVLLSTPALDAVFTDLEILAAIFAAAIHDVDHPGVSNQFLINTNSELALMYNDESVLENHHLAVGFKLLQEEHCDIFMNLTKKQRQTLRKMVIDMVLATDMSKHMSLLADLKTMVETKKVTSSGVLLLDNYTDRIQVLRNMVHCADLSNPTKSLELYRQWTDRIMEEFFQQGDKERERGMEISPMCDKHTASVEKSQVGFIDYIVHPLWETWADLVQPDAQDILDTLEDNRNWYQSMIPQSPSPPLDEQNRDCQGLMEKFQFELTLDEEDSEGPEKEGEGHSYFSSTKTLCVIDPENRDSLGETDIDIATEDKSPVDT

In ChEMBL document CHEMBL1649422, “Synthesis and molecular modeling of novel tetrahydro-β-carboline derivatives with phosphodiesterase 5 inhibitory and anticancer properties” (J Med Chem, 2011):

Target: 3',5'-cyclic-AMP phosphodiesterase 4B (Homo sapiens, UniProt Q07343)
Test: Inhibition of human recombinant PDE4B-mediated hydrolysis of cAMP after 30 mins by fluorescence polarization assay
Procedure, shortened: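 Recombinant human enzyme levels were PDE3B 10 units/mL, PDE4B 400 units/mL and PDE11A 50 units/mL. Enzyme was preincubated with compound or vehicle for 30 min. Substrate was then added: 50 nM TAMRA-cGMP and/or 50 nM fluorescein-cAMP. Reactions ran 1.5 h at 30 °C, followed by IMAP binding reagent for 30 min at 30 °C. Fluorescence polarization was read. IC50 came from a 10-concentration series in quadruplicate, fitted to a four-parameter logistic.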

IC50: > 50 µM
SMILES: CN1CC(=O)N2[C@H](c3ccc4c(c3)OCO4)c3[nH]c4ccccc4c3C[C@@H]2C1=O
